Patent publication US11278513B2, “Diethylamino compounds for use as local anesthetics” (Zhejiang Yuejia Pharmaceuticals Co., Ltd, priority 2017, dated 2022)

By UniProt entry, the sequences of proteins in these tests, tags left out.
UniProt Q15858, whole entry: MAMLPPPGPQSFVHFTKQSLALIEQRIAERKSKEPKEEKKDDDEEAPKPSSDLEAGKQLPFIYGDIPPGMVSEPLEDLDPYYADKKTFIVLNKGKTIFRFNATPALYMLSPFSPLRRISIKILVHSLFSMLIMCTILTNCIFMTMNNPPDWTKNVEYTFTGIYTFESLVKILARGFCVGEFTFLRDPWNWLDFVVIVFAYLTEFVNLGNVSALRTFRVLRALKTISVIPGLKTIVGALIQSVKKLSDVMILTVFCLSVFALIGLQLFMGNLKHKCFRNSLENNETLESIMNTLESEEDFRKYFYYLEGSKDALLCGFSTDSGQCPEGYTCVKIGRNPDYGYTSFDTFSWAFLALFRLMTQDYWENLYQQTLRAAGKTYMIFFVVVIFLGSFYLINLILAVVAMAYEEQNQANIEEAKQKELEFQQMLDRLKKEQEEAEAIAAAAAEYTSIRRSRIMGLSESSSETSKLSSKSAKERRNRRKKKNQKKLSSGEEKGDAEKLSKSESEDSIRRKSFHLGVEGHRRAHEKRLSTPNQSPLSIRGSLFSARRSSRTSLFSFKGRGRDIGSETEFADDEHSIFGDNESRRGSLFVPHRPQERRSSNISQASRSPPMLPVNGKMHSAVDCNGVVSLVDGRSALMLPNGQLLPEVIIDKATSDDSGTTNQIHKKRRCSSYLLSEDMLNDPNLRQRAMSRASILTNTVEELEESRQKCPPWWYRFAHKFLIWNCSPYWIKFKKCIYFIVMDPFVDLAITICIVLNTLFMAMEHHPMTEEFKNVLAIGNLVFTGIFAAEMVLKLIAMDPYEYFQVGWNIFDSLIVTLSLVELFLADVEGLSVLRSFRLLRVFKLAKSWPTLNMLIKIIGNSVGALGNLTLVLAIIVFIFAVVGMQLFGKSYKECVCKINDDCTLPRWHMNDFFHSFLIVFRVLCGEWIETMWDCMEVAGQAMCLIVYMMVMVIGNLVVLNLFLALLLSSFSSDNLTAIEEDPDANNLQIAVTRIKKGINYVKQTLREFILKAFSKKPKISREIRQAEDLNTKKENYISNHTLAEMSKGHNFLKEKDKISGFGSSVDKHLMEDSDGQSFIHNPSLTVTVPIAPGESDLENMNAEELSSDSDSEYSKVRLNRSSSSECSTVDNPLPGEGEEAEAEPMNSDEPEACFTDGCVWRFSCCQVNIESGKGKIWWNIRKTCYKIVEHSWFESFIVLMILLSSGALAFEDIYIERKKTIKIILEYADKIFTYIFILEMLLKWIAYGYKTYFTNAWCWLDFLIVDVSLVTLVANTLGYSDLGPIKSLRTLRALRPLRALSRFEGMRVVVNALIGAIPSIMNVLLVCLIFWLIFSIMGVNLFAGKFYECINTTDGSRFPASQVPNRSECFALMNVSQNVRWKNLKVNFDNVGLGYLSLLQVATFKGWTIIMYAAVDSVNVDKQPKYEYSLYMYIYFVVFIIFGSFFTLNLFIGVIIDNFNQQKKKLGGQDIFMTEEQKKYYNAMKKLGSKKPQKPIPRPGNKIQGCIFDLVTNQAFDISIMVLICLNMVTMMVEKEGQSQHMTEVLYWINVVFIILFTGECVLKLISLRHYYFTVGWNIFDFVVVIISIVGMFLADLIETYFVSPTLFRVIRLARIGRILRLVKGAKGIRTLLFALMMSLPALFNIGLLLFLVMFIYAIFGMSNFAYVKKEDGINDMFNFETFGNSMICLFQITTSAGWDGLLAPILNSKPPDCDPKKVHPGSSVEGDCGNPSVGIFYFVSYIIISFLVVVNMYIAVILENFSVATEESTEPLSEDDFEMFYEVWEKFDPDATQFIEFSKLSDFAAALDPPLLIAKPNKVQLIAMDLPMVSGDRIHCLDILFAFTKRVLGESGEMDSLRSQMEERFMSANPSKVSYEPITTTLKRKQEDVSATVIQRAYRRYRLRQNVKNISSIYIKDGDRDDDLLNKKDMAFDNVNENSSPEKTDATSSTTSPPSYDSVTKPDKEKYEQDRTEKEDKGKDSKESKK
UniProt Q9Y5Y9, whole entry: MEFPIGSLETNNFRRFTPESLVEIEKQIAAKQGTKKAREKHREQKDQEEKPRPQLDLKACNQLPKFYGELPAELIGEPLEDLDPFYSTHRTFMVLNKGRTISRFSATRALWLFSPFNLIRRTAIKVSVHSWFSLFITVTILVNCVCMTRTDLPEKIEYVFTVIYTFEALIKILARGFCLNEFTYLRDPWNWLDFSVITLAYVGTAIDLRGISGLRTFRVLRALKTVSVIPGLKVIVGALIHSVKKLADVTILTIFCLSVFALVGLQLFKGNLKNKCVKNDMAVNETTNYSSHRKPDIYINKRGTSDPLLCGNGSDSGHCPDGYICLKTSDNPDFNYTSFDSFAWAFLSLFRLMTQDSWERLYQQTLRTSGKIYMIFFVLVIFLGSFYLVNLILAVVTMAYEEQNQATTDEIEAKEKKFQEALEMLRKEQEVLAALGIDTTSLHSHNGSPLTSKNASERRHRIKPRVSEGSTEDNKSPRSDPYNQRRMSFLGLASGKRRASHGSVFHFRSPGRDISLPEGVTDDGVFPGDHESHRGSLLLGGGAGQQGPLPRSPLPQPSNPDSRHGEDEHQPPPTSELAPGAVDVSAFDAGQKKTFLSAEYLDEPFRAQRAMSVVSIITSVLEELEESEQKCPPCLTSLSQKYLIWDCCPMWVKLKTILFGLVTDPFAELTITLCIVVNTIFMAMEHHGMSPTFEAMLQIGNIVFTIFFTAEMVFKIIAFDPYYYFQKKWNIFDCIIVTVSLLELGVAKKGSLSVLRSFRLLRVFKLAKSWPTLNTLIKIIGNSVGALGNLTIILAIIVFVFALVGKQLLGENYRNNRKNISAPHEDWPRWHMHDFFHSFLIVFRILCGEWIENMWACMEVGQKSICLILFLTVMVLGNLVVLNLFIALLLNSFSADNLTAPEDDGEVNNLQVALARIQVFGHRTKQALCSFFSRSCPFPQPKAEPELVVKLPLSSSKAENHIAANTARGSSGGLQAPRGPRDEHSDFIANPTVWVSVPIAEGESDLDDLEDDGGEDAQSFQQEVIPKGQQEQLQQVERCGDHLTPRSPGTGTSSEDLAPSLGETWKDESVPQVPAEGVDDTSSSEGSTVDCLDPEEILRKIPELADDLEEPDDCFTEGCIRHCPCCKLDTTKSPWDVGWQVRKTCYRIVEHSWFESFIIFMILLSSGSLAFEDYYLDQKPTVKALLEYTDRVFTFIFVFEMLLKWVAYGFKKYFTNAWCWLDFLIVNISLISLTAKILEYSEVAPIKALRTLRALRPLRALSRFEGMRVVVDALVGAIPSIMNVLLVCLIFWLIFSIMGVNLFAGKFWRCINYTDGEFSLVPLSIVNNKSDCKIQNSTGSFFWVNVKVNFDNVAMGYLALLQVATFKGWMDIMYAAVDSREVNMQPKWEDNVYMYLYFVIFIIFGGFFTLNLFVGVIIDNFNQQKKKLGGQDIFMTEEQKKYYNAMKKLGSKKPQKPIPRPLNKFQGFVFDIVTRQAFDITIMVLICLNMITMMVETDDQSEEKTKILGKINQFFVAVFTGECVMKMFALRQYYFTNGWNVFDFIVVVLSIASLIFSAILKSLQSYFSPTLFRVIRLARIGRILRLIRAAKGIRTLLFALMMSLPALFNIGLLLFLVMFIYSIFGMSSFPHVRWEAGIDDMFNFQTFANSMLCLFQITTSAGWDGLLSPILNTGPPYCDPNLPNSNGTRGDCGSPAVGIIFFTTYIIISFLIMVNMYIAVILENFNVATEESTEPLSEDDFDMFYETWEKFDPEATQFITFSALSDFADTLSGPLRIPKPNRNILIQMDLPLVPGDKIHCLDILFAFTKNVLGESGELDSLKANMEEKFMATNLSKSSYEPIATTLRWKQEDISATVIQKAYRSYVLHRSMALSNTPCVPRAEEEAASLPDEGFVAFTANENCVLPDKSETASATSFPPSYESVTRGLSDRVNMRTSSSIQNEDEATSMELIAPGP

How the values were obtained:
Nav1.7 = Nav1.7 (Homo sapiens, UniProt Q15858); experiment: Inhibition of Nav1.7 channel current in CHO cells stably expressing Nav1.7; type: cell-based; conditions: read-out: IC50 for the inhibition of Nav1.7; CHO cells stably expressing Nav1.7, channel current
Nav1.8 = Nav1.8 (Homo sapiens, UniProt Q9Y5Y9); experiment: Inhibition of Nav1.8 channel current in HEK cells stably expressing Nav1.8; type: cell-based; conditions: read-out: IC50 for the inhibition of Nav1.8; HEK cells stably expressing Nav1.8, channel current
[1] = system: rat dorsal root ganglion (DRG) neurons; experiment: Patch clamp inhibition of action potential of acutely isolated rat DRG neurons; type: cell-based; conditions: read-out: IC50 for inhibition of action potential of DRG neuron
[2] = system: corneal reflex in rabbits; experiment: Anesthetic effect on the corneal surface of New Zealand rabbits (corneal reflex inhibition, CRI); type: in vivo, New Zealand white rabbits; conditions: 3% (m/V); for CRI (%): 100 μL on left eyeball, mean ± SD
Method: New Zealand white rabbits were weighed. […] A single administration of 3 mg/animal (100 μL) was performed on the surface of the eyeball, and the drug concentration was 3% (m/V) in each case (wherein a Tris solution was added to aspirin to facilitate dissolution). Each group included 12 rabbits. […] An equal volume of normal saline was dropped onto the right eyeball as the self-negative control. […] After 30 minutes of administration, it was tested every 15 minutes. After the corneal reflex returned to the pre-dose level, the test was stopped. By comparing the corneal reflex on the administration side and the self-negative control side, the effect of the compound on the corneal reflex after administration was judged. Corneal reflex inhibition (CRI) was used to evaluate the effect of drugs on corneal reflex. CRI was calculated as follows: […]

## salicylic acid-(2-diethylaminoethyl ester) hydrochloride
Nav1.7
  IC50: 24.7 µM
Nav1.8
  IC50: 73.1 µM
[1]
  IC50: 35 µM
[2]; 0 min
  CRI (%): 0.0 ± 0.0%
[2]; 10 min after administration
  CRI (%): 96.7 ± 6.5%
[2]; 15 min after administration
  CRI (%): 95.9 ± 9.8%
[2]; 20 min after administration
  CRI (%): 87.5 ± 11.9%
[2]; 25 min after administration
  CRI (%): 79.4 ± 12.2%
[2]; 30 min after administration
  CRI (%): 60.2 ± 12.4%
[2]; 45 min after administration
  CRI (%): 13.5 ± 9.9%
[2]; 60 min after administration
  CRI (%): 0.0 ± 0.0%
[2]; ophthalmic administration, rabbits
  local anesthetic effect (in words): had a local anesthesia effect for ophthalmic administration, with quick onset

This is a selection: effects in other tests are not listed, and their absence says nothing.
